Values quoted from earlier work in article PMC4747437.
pKd: −log10 of the molar value.

Amino acid sequences for entries named in this document (tags omitted). Residues count along the entry.
UniProt Q9UKL0, 293-380: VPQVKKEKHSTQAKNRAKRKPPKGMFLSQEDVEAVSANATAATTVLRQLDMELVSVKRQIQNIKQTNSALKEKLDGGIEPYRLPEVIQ

Target: CoREST 293-380 (Homo sapiens) (UniProt Q9UKL0)

pKd: 8.11
Substance: KDM1A (from UniProt O60341)
